This is a selection: effects in other tests are not listed, and their absence says nothing.
Each compound was assayed on apomorphine-induced vomiting in dogs (assay: Apomorphine-induced vomiting test in dogs (antiemetic activity, subcutaneous)). Conditions: s.c., beagle dogs, apomorphine 0.31 mg/kg s.c. 1 hour after compound.
Type: in vivo

In order of falling “ED50 (dose which protects 50% of the animals from emesis), Table IV” value:
1. O=c1[nH]c2cc(Cl)ccc2n1C1CCN(CCCn2nnc3ccccc32)CC1  0.06 mg/kg
2. O=c1oc2ccccc2n1CCCN1CCC(n2c(=O)[nH]c3cc(Cl)ccc32)CC1  0.03 mg/kg
3. O=c1sc2ccccc2n1CCCN1CCC(n2c(=O)[nH]c3cc(Cl)ccc32)CC1  0.001 mg/kg

In order of falling “ED50 (dose which protects 50% of the animals from emesis), Table II” value:
1. CC(C)O.Cc1cc2[nH]c(=O)n(CCCN3CCC(n4c(=O)[nH]c5ccccc54)CC3)c2cc1C  0.45 mg/kg
2. Cc1ccc2c(c1)[nH]c(=O)n2CCCN1CCC(n2c(=O)[nH]c3ccccc32)CC1.Cl.O  0.20 mg/kg
3. C=C(C)n1c(=O)n(CCCN2CCC(n3c(=O)[nH]c4cc(Cl)ccc43)CC2)c2ccccc21  0.20 mg/kg
4. Cn1c(=O)n(CCCN2CCC(n3c(=O)[nH]c4cc(Cl)ccc43)CC2)c2ccccc21  0.16 mg/kg
5. Cc1ccc2c(c1)[nH]c(=O)n2CCCN1CCC(n2c(=O)[nH]c3cc(Cl)ccc32)CC1.Cl.O  0.12 mg/kg
6. C=CCn1c(=O)n(CCCN2CCC(n3c(=O)[nH]c4cc(Cl)ccc43)CC2)c2ccccc21  0.12 mg/kg
7. O=c1[nH]c2cc(Cl)ccc2n1CCCN1CCC(n2c(=O)[nH]c3cc(Cl)ccc32)CC1  0.12 mg/kg
8. O=c1[nH]c2cc(Cl)ccc2n1CCCN1CCC(n2c(=O)[nH]c3ccccc32)CC1  0.10 mg/kg
9. CC(CN1CCC(n2c(=O)[nH]c3cc(Cl)ccc32)CC1)Cn1c(=O)[nH]c2ccccc21 (centres unmarked)  0.06 mg/kg
10. O=c1[nH]c2ccccc2n1CCCN1CCC(n2c(=O)[nH]c3ccccc32)CC1  0.02 mg/kg
11. Cl.O.O=c1[nH]c2cc(F)ccc2n1CCCN1CCC(n2c(=O)[nH]c3cc(Cl)ccc32)CC1  0.004 mg/kg
